DT40 TDP1 CPT: growth inhibition of DT40 Tdp1-/-;hTDP1 cells with camptothecin (screen for TDP1 inhibitors) | chicken DT40 Tdp1-/-;hTDP1 cells + 20 nM CPT, ATP luminescence, 48 h | 420,000 compounds, 12% hits | Potency, µM (doses to about 46.2 µM), most hits filed as inhibitors; note: nearly all actives have a fitted effect of over 55% in size
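Cell growth measured by CellTiter-Glo luminescence after a minimum 48 h, 37 C compound exposure with 20 nM CPT in Tdp1-knockout DT40 cells stably expressing hTDP1, seeded 400/well; qHTS titration format.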
miR-21 reporter: miR-21 reporter, rising signal. 340,000 tested, under 10 active. Potency, µM (highest dose often 38.3 µM). HeLa miR-21 FLuc reporter, luciferase, 48 h. AID 2288; active = well fitted rising curve with a large enough effect; inconclusive = small, poorly fitted or top-dose-only effect; inactive = no such curve, though single readings can be large or run the other way;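 further: miR-21 action dims this reporter so a rising signal means less miR-21 action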
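Luminescence from a firefly luciferase reporter carrying a miR-21 binding site downstream, stably expressed under a CMV promoter in HeLa cells that make miR-21 endogenously, reports miRNA modulation after 48 h compound exposure up to approximately 40uM final.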
uPA surface inh: blocks generation of uPA at the cell surface. cell surface uPA generation assay, qHTS. Potency, µM (series often up to 38.3 µM), hits mostly inhibitors. 330,000 compounds, 0.31% hits. AID 540303; active = well fitted inhibition curve with a large enough effect; inconclusive = small, poorly fitted or top-dose-only effect; inactive = no such curve, though single readings can be large or run the other way; tested in mouse RAW 264.7 cells; note: nearly all actives have a fitted effect of over 55% in size
TDP1 block: TDP1 (human) enzyme inhibition; AID 485290; Potency, µM (top dose mostly 130 µM), actives largely listed as inhibitors; recombinant TDP1, AlphaScreen DNA substrate cleavage; 350,000 compounds, 0.28% hits; note: nearly all actives have a fitted effect of over 40% in size
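Here, a 5' biotin and 3' phosphotyrosine-FITC DNA oligonucleotide reports Tdp1 activity: intact substrate bridges AlphaScreen beads, while cleavage leaves a 3' phosphate and drops signal. All incubations at room temperature.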
TDP1 cell noCPT: qHTS for Inhibitors of human tyrosyl-DNA phosphodiesterase 1 (TDP1): qHTS in cells in absence of CPT | DT40 Tdp1-/- hTDP1 cells, no CPT, ATP luminescence, 48 h | Potency, µM (doses to about 46.2 µM), actives largely listed as inhibitors | 420,000 compounds, 15% hits; note: nearly all actives have a fitted effect of over 55% in size
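Luminescent ATP content (CellTiter-Glo) served as the growth readout. Knockout chicken DT40 cells expressing human TDP1 were exposed to compounds without camptothecin for a minimum 48 hr at 37 °C.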
A number is an active result; . = inactive; ? = inconclusive; / = no result given. A selection: hits, their analogues and other compounds. The true share with any hit is near 16%. Unless noted, calls come from the whole dose curve; as a rule, active = well fitted curve in the direction sought with a large enough effect; inconclusive = small, poorly fitted or top-dose-only effect, or another doubt; inactive = no such curve, though single readings can be large; an effect the other way counts as inactive or inconclusive.

SMILES	DT40 TDP1 CPT	miR-21 reporter	uPA surface inh	TDP1 block	TDP1 cell noCPT
CC(CCc1ccc(O)cc1)NCCc1ccc(O)c(O)c1 (centres undefined)	26.6µM	/	7.94µM	.	15µM
O=C(NCC1CCCO1)c1ccc2c(c1)N(Cc1ccc(Cl)cc1)CCS2 (centres undefined)	?	/	/	/	23.1µM
CCc1ccc(NC(=O)c2ccc3c(c2)N(Cc2ccc(C)cc2)CCS3)cc1	14.6µM	.	/	.	?
CN1CCSc2ccc(C(=O)Nc3ccc(Cl)cc3)cc21	.	.	.	/	.
CCOC(=O)N1CCC(NC(=O)c2ccc3c(c2)N(CC)CCS3)CC1	20.6µM	/	.	/	?
Cc1ccc(CN2CCSc3ccc(C(=O)Nc4ccc(F)cc4F)cc32)cc1	16.4µM	.	/	.	?
Cc1ccc(CN2CCSc3ccc(C(=O)NCC4CCCO4)cc32)cc1 (centres undefined)	?	.	.	.	?
CCOC(=O)N1CCC(NC(=O)CN2C(=O)CCSc3ccccc32)CC1	.	.	.	.	.
CC(C)NC(=O)COC(=O)c1ccc(NS(=O)(=O)c2ccc3c(c2)OCCO3)cc1	.	.	.	.	.
CN(C(=O)Nc1ccc(C(C)(C)C)cc1)C1CCCCC1	.	.	.	.	.
Cc1ccc(CN2CCSc3ccc(C(=O)NC4CCCC4)cc32)cc1	16.4µM	.	.	.	?
O=C(NC1CCCC1)c1ccc2c(c1)N(Cc1ccc(F)cc1)CCS2	?	.	.	.	?
Cc1ccc(CN2CCSc3ccc(C(=O)NCc4cccnc4)cc32)cc1	23.1µM	.	.	.	?
Cc1cccc(-c2ccc3[nH]c4c(c3c2)CCN2C[C@H]3[C@H](C)ON(C)[C@H]3C[C@@H]42)c1	?	/	/	/	14.6µM
Cc1cccc(-c2ccc3[nH]c4c(c3c2)CCN2C[C@@H]([C@H](C)O)[C@@H](N(C)C(=O)NC3CCCCC3)C[C@@H]42)c1	13µM	/	/	/	?
C[C@@H]1ON(C)[C@H]2C[C@H]3c4[nH]c5ccccc5c4CCN3C[C@@H]12	.	/	/	/	.
CN[C@H]1C[C@H]2c3[nH]c4ccc(-c5cccc(C)c5)cc4c3CCN2C[C@H]1[C@H](C)O	7.31µM	/	/	/	11.6µM
Cc1c[n+]([O-])cc(C)c1[N+](=O)[O-]	.	/	.	/	.
CCOc1ncccc1C(=O)NCCc1c[nH]c2ccccc12	?	.	.	/	?
Cc1ccc(C(=O)N/N=C\c2ccc[nH]2)cn1	.	.	.	.	.
O=C(N/N=C/c1ccc[nH]1)c1cccnc1	14.6µM	.	.	.	6.51µM
O=C(N/N=C/c1cccs1)c1cccnc1	.	.	.	.	23.1µM
O=C(NNS(=O)(=O)c1ccc(Cl)cc1Cl)c1cc2ncc(C(F)(F)F)cc2s1	.	.	.	.	?
CC(C)CCN(C(=O)Nc1ccccc1)C(C)c1cccs1 (centres undefined)	20.6µM	.	/	.	18.4µM
COc1ccc(NC(=O)N(CCC(C)C)C(C)c2cccs2)c(OC)c1 (centres undefined)	?	.	/	.	18.4µM
SMILES	DT40 TDP1 CPT	miR-21 reporter	uPA surface inh	TDP1 block	TDP1 cell noCPT
CCc1ccc(NC(=O)N(Cc2ccco2)C(C)c2cccs2)cc1 (centres undefined)	?	.	/	.	?
CN(C(=O)Nc1ccccc1)C1CCCCC1	.	.	.	/	.
CC(c1cccs1)N(C(=O)Nc1ccccc1)C1CCCCC1 (centres undefined)	15.8µM	.	/	.	14.1µM
Cc1cccc(NC(=O)c2ccc(Cl)c(NC(=O)c3ccncc3)c2)c1C	.	.	.	.	.
COc1ccc(C2=CC(=O)CC(c3ccc(F)cc3)C2)cc1 (centres undefined)	?	/	.	/	.
O=C1C=C(c2ccc(CO)cc2)C[C@@H](c2ccc(F)cc2)C1	.	/	/	/	23.1µM
O=C1C=C(c2ccc(-c3ccccc3)cc2)C[C@@H](c2ccc(F)cc2)C1	18.4µM	/	.	.	?
Cc1ccc(C2=CC(=O)C[C@H](c3ccc(F)cc3)C2)cc1	?	/	.	.	?
Cn1ccc2ccc(C3=CC(=O)C[C@H](c4ccc(F)cc4)C3)cc21	7.31µM	/	.	.	18.4µM
COc1ccc(N2CC(C(=O)Nc3c4c(nn3-c3ccccc3)CS(=O)(=O)C4)CC2=O)cc1 (centres undefined)	.	.	.	.	.
Cc1ccc(S(=O)(=O)NN=Cc2ccccc2Cl)cc1	23.1µM	/	/	/	?
Cc1ccc(S(=O)(=O)NOCc2ccccc2)cc1	.	/	.	/	?
O=S(=O)(N/N=C/c1ccccc1F)c1ccccc1	18.4µM	.	.	.	23.1µM
Cc1ccc(S(=O)(=O)NN=Cc2cc(Cl)ccc2O)cc1	.	/	.	/	.
Cc1ccc(S(=O)(=O)N/N=C\c2ccccc2OCc2ccccc2)cc1	?	.	?	.	18.4µM
COc1ccc(CNS(=O)(=O)c2cc(CN3C(=O)c4cccnc4C3=O)ccc2OC)cc1	.	.	.	.	.
O=C(CCc1nc2ccccc2c(=O)[nH]1)Nc1nc(-c2cccs2)cs1	?	/	.	/	?
CN(c1ccc(-c2csc(NC(=O)CCCc3nc4ccccc4c(=O)[nH]3)n2)cc1)S(C)(=O)=O	20.6µM	/	/	/	8.2µM
CN(C)CC(=O)Nc1nc(-c2ccccc2)cs1	.	.	.	.	?
CC(=O)NC(CC(=O)Nc1nc(-c2ccc(N(C)S(C)(=O)=O)cc2)cs1)c1ccccc1 (centres undefined)	20.6µM	?	.	.	16.4µM
O=C(CNC(=S)N(Cc1ccccc1)Cc1ccccc1F)NCCc1ccc(Cl)cc1	23.1µM	.	.	.	?
Cc1ccccc1NC(=S)N(Cc1cccnc1)Cc1ccccc1Cl	.	.	.	.	.
Cc1ccc(CNC(=O)CNC(=S)N(Cc2ccccc2)Cc2cccnc2)cc1	?	.	.	.	25.9µM
Cc1ccc(CN(Cc2ccco2)C(=S)NCC(=O)NCc2cccnc2)cc1	.	.	.	.	?
S=C(Nc1ccccc1Cl)N(Cc1ccccc1)Cc1cccnc1	.	.	.	.	16.4µM
SMILES	DT40 TDP1 CPT	miR-21 reporter	uPA surface inh	TDP1 block	TDP1 cell noCPT
CN(C)C(CNC(=O)c1ccc2[nH]c(=O)c(=O)[nH]c2c1)c1ccco1 (centres undefined)	.	/	.	.	.
CC(c1ccncc1)C(C)c1ccncc1 (centres undefined)	.	/	.	.	.
COc1ccc(C(=O)N2CCC(O)(c3ccc(Cl)cc3)CC2)cc1OC	.	.	.	.	.
CCCCn1c(N)c(N(CCC(C)C)C(=O)CN2C(=O)C3CCCCC3C2=O)c(=O)[nH]c1=O (centres undefined)	.	.	.	.	.
CCc1cccc(NC(=O)c2cccc3c2C(=O)N(C2CCCCC2)C3)c1	?	.	.	.	18.4µM
Cc1ccc(NC(=O)c2cccc3c2C(=O)N(C2CCCCC2)C3)cc1	?	.	.	.	20.6µM

Screens as filed in PubChem.
